# ChEMBL document CHEMBL5338706, “Discovery of a potent and selective proteolysis targeting chimera (PROTAC) degrader of NSD3 histone methyltransferase” (Eur J Med Chem, 2022)
# The chains behind the UniProt entries cited, without tags or fusion partners. Where a name states a change or a piece, a line headed by the entry shows the natural chain unless it says otherwise.
# UniProt Q96L73: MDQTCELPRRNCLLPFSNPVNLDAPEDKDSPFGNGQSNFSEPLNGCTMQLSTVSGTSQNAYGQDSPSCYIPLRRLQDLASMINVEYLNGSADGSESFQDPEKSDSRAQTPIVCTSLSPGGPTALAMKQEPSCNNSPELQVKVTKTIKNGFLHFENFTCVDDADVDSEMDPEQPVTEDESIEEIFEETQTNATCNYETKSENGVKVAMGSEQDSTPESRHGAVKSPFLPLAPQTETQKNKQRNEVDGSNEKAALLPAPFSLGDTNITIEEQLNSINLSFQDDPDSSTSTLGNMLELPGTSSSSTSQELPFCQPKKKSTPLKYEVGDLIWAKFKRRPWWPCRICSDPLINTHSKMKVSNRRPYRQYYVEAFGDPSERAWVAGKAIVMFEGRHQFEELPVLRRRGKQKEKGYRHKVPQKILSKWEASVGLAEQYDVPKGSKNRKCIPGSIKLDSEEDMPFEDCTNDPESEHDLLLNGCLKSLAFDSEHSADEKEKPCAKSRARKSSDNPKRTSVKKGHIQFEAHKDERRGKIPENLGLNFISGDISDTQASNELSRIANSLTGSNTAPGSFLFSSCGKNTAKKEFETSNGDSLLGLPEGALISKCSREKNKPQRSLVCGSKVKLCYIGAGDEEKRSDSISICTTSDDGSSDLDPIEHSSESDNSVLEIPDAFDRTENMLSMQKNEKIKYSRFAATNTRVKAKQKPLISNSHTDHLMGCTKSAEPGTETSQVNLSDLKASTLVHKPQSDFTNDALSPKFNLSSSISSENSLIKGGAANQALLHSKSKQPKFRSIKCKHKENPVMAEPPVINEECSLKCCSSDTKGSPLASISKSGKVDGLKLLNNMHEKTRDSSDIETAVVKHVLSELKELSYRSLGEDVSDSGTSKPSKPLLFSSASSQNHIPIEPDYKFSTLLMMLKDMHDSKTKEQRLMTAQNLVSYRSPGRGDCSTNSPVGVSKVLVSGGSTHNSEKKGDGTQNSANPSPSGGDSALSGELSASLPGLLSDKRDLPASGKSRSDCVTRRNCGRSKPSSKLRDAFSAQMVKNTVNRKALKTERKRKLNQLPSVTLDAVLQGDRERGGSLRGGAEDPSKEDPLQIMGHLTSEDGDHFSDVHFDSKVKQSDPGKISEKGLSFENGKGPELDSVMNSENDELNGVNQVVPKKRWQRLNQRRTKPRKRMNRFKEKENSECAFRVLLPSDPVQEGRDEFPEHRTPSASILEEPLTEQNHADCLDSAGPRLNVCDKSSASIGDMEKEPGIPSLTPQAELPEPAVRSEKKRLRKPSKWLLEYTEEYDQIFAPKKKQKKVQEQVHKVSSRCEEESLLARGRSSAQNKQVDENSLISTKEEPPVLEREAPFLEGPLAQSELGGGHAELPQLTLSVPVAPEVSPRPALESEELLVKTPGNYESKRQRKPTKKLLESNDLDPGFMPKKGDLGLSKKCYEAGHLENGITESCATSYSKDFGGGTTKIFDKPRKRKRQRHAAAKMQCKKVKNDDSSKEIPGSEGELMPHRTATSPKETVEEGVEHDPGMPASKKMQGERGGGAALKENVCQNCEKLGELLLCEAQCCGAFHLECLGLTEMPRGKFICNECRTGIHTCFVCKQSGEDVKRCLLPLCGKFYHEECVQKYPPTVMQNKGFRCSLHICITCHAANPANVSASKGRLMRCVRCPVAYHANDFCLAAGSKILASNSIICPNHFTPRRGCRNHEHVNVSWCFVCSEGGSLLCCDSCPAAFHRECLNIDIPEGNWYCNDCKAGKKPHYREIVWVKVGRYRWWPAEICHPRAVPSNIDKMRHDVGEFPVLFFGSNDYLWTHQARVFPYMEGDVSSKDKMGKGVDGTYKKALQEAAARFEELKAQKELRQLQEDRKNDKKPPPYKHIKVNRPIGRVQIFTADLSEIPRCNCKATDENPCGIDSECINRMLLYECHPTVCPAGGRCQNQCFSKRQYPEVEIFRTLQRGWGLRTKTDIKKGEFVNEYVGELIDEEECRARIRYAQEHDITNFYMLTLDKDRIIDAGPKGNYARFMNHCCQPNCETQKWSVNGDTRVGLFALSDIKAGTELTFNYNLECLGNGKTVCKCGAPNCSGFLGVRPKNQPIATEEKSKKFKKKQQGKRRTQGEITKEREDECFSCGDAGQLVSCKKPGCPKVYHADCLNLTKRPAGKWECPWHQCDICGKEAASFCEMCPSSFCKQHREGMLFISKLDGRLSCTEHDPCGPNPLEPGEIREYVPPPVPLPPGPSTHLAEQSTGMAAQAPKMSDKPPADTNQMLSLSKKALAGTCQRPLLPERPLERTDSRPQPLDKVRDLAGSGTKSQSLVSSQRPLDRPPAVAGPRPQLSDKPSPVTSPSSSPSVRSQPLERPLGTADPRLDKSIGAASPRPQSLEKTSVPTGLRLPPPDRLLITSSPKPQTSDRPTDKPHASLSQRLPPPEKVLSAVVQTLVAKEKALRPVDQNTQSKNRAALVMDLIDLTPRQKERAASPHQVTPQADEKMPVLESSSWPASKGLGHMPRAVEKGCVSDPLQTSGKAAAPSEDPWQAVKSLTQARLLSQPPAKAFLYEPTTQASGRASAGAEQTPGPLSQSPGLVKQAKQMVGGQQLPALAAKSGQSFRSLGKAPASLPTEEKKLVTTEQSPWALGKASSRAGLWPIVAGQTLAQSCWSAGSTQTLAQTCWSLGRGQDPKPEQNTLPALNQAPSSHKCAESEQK
# What was measured:
# Assay type in all cases: cell-based
# [1] = molecular target: T1, Histone-lysine N-methyltransferase NSD3 (Homo sapiens) (UniProt Q9BZ95); test: Induction of NSD3 degradation in human NCI-H1703 cells at 5 uM incubated for 72 hrs by measuring fold change by Western blot analysis relative to control
# T1 sequence (whole entry): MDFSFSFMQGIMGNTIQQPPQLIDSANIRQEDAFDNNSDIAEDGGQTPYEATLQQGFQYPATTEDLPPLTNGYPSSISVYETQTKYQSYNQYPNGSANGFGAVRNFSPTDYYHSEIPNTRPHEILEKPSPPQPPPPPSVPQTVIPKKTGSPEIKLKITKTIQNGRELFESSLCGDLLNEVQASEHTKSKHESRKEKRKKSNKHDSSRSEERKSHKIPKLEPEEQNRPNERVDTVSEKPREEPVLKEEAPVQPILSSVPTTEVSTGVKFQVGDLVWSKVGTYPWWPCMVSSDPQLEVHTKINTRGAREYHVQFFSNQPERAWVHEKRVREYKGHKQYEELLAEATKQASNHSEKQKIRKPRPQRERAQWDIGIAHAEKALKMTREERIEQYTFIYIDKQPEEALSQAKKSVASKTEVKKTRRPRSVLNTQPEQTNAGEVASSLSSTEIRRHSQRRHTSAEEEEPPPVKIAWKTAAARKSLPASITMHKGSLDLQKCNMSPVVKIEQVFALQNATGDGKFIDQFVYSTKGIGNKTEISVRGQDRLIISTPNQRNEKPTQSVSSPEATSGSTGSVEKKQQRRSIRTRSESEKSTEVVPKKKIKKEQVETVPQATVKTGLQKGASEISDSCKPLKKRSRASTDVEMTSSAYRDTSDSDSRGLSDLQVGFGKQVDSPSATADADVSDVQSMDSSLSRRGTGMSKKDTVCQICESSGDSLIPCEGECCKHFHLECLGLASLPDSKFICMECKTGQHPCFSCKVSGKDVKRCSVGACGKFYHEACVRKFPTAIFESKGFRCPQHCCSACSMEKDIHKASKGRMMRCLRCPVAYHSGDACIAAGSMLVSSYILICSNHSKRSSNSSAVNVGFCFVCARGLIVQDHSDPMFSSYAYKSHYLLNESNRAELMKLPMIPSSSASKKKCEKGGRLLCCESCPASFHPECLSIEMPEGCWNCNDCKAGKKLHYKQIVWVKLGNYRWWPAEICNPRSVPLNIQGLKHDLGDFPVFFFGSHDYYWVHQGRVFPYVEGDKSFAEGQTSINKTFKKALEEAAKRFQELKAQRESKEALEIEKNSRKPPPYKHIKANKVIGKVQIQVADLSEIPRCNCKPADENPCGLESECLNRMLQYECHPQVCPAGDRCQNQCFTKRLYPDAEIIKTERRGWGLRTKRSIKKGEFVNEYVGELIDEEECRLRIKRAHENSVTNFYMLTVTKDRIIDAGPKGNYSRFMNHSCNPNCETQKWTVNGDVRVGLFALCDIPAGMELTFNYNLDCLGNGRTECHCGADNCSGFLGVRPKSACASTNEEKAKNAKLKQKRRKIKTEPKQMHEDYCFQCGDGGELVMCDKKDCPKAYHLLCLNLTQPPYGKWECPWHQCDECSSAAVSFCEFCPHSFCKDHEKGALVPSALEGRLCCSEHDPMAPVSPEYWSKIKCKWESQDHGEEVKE
# [2] = molecular target: T1, Histone-lysine N-methyltransferase NSD3 (Homo sapiens); test: Induction of NSD3 degradation in human A549 cells assessed as reduction in H3K36me2 methylation at 3 uM incubated for 72 hrs by measuring fold change by Western blot analysis relative to control
# [3] = molecular target: T2, Histone-lysine N-methyltransferase NSD2 (Homo sapiens) (UniProt O96028); test: Induction of NSD2 degradation in human NCI-H1703 cells at 5 uM incubated for 72 hrs by measuring fold change by Western blot analysis relative to control
# T2 sequence (whole entry): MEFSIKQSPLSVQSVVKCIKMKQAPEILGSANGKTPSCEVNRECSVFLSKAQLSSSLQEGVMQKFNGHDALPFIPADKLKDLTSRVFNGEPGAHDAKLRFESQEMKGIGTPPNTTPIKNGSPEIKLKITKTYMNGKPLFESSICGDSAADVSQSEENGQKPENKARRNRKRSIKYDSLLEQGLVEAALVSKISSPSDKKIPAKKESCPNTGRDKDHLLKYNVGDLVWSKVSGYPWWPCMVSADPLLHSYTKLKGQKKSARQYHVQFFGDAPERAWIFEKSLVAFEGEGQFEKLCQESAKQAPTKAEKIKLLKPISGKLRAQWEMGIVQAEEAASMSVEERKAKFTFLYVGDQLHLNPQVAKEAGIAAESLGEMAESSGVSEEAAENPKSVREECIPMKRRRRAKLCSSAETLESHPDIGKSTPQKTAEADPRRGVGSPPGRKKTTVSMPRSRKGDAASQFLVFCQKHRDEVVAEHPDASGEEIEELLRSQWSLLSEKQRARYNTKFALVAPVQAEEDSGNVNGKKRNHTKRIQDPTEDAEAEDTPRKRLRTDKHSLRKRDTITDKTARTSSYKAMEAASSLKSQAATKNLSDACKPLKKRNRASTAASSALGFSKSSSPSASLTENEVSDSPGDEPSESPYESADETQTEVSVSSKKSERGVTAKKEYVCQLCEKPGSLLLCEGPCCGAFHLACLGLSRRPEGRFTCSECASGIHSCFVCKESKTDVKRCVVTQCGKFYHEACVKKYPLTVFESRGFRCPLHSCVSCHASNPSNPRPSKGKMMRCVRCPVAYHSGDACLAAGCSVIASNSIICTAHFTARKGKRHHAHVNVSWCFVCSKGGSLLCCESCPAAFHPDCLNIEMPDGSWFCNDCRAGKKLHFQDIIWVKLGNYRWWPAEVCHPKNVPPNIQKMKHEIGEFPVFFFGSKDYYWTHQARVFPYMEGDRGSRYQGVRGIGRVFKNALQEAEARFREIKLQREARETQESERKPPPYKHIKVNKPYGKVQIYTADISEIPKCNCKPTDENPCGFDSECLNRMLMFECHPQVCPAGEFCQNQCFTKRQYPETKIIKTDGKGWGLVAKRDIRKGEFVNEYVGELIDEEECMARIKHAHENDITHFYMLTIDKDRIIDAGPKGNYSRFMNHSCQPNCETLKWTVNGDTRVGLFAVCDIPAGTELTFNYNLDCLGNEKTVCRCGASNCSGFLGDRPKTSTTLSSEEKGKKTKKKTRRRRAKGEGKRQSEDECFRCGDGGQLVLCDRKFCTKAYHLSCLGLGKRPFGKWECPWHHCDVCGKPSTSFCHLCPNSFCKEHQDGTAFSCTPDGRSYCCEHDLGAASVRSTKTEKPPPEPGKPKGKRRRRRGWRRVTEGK
# [4] = molecular target: Histone-lysine N-methyltransferase, H3 lysine-36 specific (Homo sapiens) (UniProt Q96L73); test: Induction of NSD1 degradation in human A549 cells at 7.5 uM incubated for 72 hrs by measuring fold change by Western blot analysis relative to control
# [5] = molecular target: T1, Histone-lysine N-methyltransferase NSD3 (Homo sapiens); test: Induction of NSD3 degradation in human NCI-H1703 cells at 3 uM incubated for 72 hrs by measuring fold change by Western blot analysis relative to control
# [6] = molecular target: T1, Histone-lysine N-methyltransferase NSD3 (Homo sapiens); test: Induction of NSD3 degradation in human NCI-H1703 cells assessed as reduction in H3K36me3 methylation at 3 uM incubated for 72 hrs by measuring fold change by Western blot analysis relative to control
# [7] = molecular target: T2, Histone-lysine N-methyltransferase NSD2 (Homo sapiens); test: Induction of NSD2 degradation in human A549 cells at 3 uM incubated for 72 hrs by measuring fold change by Western blot analysis relative to control
# [8] = molecular target: T1, Histone-lysine N-methyltransferase NSD3 (Homo sapiens); test: Induction of NSD3 degradation in human A549 cells at 7.5 uM incubated for 72 hrs by measuring fold change by Western blot analysis relative to control
# [9] = molecular target: T2, Histone-lysine N-methyltransferase NSD2 (Homo sapiens); test: Induction of NSD2 degradation in human A549 cells at 7.5 uM incubated for 72 hrs by measuring fold change by Western blot analysis relative to control
# [10] = molecular target: T1, Histone-lysine N-methyltransferase NSD3 (Homo sapiens); test: Induction of NSD3 degradation in human NCI-H1703 cells assessed as reduction in H3K36me3 methylation at 7.5 uM incubated for 72 hrs by measuring fold change by Western blot analysis relative to control
# [11] = molecular target: Histone-lysine N-methyltransferase, H3 lysine-36 specific (Homo sapiens) (UniProt Q96L73); test: Induction of NSD1 degradation in human A549 cells at 5 uM incubated for 72 hrs by measuring fold change by Western blot analysis relative to control
# [12] = molecular target: T1, Histone-lysine N-methyltransferase NSD3 (Homo sapiens); test: Induction of NSD3 degradation in human A549 cells at 5 uM incubated for 72 hrs by measuring fold change by Western blot analysis relative to control
# [13] = molecular target: Histone-lysine N-methyltransferase, H3 lysine-36 specific (Homo sapiens) (UniProt Q96L73); test: Induction of NSD1 degradation in human NCI-H1703 cells at 5 uM incubated for 72 hrs by measuring fold change by Western blot analysis relative to control
# [14] = molecular target: T2, Histone-lysine N-methyltransferase NSD2 (Homo sapiens); test: Induction of NSD2 degradation in human A549 cells at 5 uM incubated for 72 hrs by measuring fold change by Western blot analysis relative to control
# [15] = molecular target: Histone-lysine N-methyltransferase, H3 lysine-36 specific (Homo sapiens) (UniProt Q96L73); test: Induction of NSD1 degradation in human A549 cells at 3 uM incubated for 72 hrs by measuring fold change by Western blot analysis relative to control
# [16] = molecular target: T2, Histone-lysine N-methyltransferase NSD2 (Homo sapiens); test: Induction of NSD2 degradation in human NCI-H1703 cells at 3 uM incubated for 72 hrs by measuring fold change by Western blot analysis relative to control
# [17] = molecular target: T1, Histone-lysine N-methyltransferase NSD3 (Homo sapiens); test: Induction of NSD3 degradation in human NCI-H1703 cells assessed as reduction in H3K36me2 methylation at 5 uM incubated for 72 hrs by measuring fold change by Western blot analysis relative to control
# [18] = molecular target: T1, Histone-lysine N-methyltransferase NSD3 (Homo sapiens); test: Induction of NSD3 degradation in human A549 cells assessed as reduction in H3K36me3 methylation at 3 uM incubated for 72 hrs by measuring fold change by Western blot analysis relative to control
# [19] = molecular target: T1, Histone-lysine N-methyltransferase NSD3 (Homo sapiens); test: Induction of NSD3 degradation in human NCI-H1703 cells at 7.5 uM incubated for 72 hrs by measuring fold change by Western blot analysis relative to control
# [20] = molecular target: T1, Histone-lysine N-methyltransferase NSD3 (Homo sapiens); test: Induction of NSD3 degradation in human A549 cells at 3 uM incubated for 72 hrs by measuring fold change by Western blot analysis relative to control
# [21] = molecular target: T1, Histone-lysine N-methyltransferase NSD3 (Homo sapiens); test: Induction of NSD3 degradation in human NCI-H1703 cells assessed as reduction in H3K36me3 methylation at 5 uM incubated for 72 hrs by measuring fold change by Western blot analysis relative to control
# [22] = molecular target: T1, Histone-lysine N-methyltransferase NSD3 (Homo sapiens); test: Induction of NSD3 degradation in human NCI-H1703 cells assessed as reduction in H3K36me2 methylation at 7.5 uM incubated for 72 hrs by measuring fold change by Western blot analysis relative to control
# [23] = molecular target: T2, Histone-lysine N-methyltransferase NSD2 (Homo sapiens); test: Induction of NSD2 degradation in human NCI-H1703 cells at 7.5 uM incubated for 72 hrs by measuring fold change by Western blot analysis relative to control
# [24] = molecular target: T1, Histone-lysine N-methyltransferase NSD3 (Homo sapiens); test: Induction of NSD3 degradation in human A549 cells assessed as reduction in H3K36me3 methylation at 5 uM incubated for 72 hrs by measuring fold change by Western blot analysis relative to control
# [25] = molecular target: T1, Histone-lysine N-methyltransferase NSD3 (Homo sapiens); test: Induction of NSD3 degradation in human A549 cells assessed as reduction in H3K36me2 methylation at 7.5 uM incubated for 72 hrs by measuring fold change by Western blot analysis relative to control
# [26] = molecular target: Histone-lysine N-methyltransferase, H3 lysine-36 specific (Homo sapiens) (UniProt Q96L73); test: Induction of NSD1 degradation in human NCI-H1703 cells at 3 uM incubated for 72 hrs by measuring fold change by Western blot analysis relative to control
# [27] = molecular target: T1, Histone-lysine N-methyltransferase NSD3 (Homo sapiens); test: Induction of NSD3 degradation in human A549 cells assessed as reduction in H3K36me3 methylation at 7.5 uM incubated for 72 hrs by measuring fold change by Western blot analysis relative to control
# [28] = molecular target: T1, Histone-lysine N-methyltransferase NSD3 (Homo sapiens); test: Induction of NSD3 degradation in human A549 cells assessed as reduction in H3K36me2 methylation at 5 uM incubated for 72 hrs by measuring fold change by Western blot analysis relative to control
# [29] = molecular target: T1, Histone-lysine N-methyltransferase NSD3 (Homo sapiens); test: Induction of NSD3 degradation in human NCI-H1703 cells assessed as reduction in H3K36me2 methylation at 3 uM incubated for 72 hrs by measuring fold change by Western blot analysis relative to control
# [30] = molecular target: Histone-lysine N-methyltransferase, H3 lysine-36 specific (Homo sapiens) (UniProt Q96L73); test: Induction of NSD1 degradation in human NCI-H1703 cells at 7.5 uM incubated for 72 hrs by measuring fold change by Western blot analysis relative to control
compound,measurement,setting,value
Cc1cc(CNCCCCCCCCCCC(=O)N[C@H](C(=O)N2C[C@H](O)C[C@H]2C(=O)N[C@@H](C)c2ccc(-c3scnc3C)cc2)C(C)(C)C)cc(C)c1-c1ncn(C)c1-c1ccnc2cc(F)ccc12,fold change (FC),[1],0.8
same,fold change (FC),[2],1.15
same,fold change (FC),[3],0.8
same,fold change (FC),[4],0.92
same,fold change (FC),[5],0.8
same,fold change (FC),[6],0.92
same,fold change (FC),[7],0.92
same,fold change (FC),[8],0.51
same,fold change (FC),[9],0.85
same,fold change (FC),[10],0.68
same,fold change (FC),[11],0.96
same,fold change (FC),[12],0.52
same,fold change (FC),[13],1.28
same,fold change (FC),[14],0.87
same,fold change (FC),[15],1.02
same,fold change (FC),[16],0.94
same,fold change (FC),[17],1.09
same,fold change (FC),[18],0.96
same,fold change (FC),[19],0.75
same,fold change (FC),[20],0.6
same,fold change (FC),[21],0.75
same,fold change (FC),[22],0.94
same,fold change (FC),[23],0.92
same,fold change (FC),[24],0.79
same,fold change (FC),[25],0.9
same,fold change (FC),[26],1
same,fold change (FC),[27],0.76
same,fold change (FC),[28],0.96
same,fold change (FC),[29],1.02
same,fold change (FC),[30],1.3
